Our source for the EC50 and Activity values is ChEMBL document CHEMBL1151960, “(Nitrooxyacyloxy)methyl esters of aspirin as novel nitric oxide releasing aspirins” (J Med Chem, 2009).

pEC50: −log10 of the molar value.

In test [1] the test system is Aorta. Put plainly: Vasodilatory activity in Wistar rat endothelium-denuded thoracic aortic ring assessed as inhibition of phenylephrine-induced contraction […]. As to conditions: strain Wistar.
In test [2] the test system is Aorta. Put plainly: Vasodilatory activity in Wistar rat endothelium-denuded thoracic aortic ring assessed as inhibition of phenylephrine-induced contraction at 100 uM preincubated for 30 mins before phenylephrine addition in presence of 1 uM 1H-[1,2,4]oxadiazolo[4,3-a]quinoxalin-1-one. On the set-up: scale not given: the % may be the effect or the level left. Conditions: strain Wistar.

Turning to `O=C(O)CCCCC(CO[N+](=O)[O-])O[N+](=O)[O-]` (stereo not drawn), the negative logarithm of the EC50 (pEC50) in the test with Aorta [1] is 5.17. Further, the Activity with Aorta [2] was < 50%.

Consider `O=C(O)CCCC(CO[N+](=O)[O-])O[N+](=O)[O-]` (stereo not drawn), for which the pEC50 in the test with Aorta [1] is 5.24.

As a reminder, the pEC50 is −log10 of the EC50, conventionally taken in molar units.
